Several values for one entry are separate records, joined by “and”; a condition that tells them apart may be missing. Equal entries are not always repeated. The entries are a selection whose mix differs from that of the whole data set. Results filed as inconclusive are left out. Some compounds were tested as several samples or in several runs, with calls that do not always agree. Activity calls are given as the source filed them. Unless noted, calls come from the whole dose curve; as a rule, active = well fitted curve in the direction sought with a large enough effect in the repeat runs; inconclusive = weak or mixed curves; inactive = no such curve, though single readings can be large; an effect the other way counts as inactive or inconclusive.
Tests used:
[1] = A CellTox Green Cytotoxicity Assay to monitor cytotoxicity in HepG2 cells - 0 hour (AID 1224882); note: nearly all actives have a fitted effect of over 35% in size; note: potency is the fitted concentration of half-maximal effect
How it was run: (§1)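 First, HepG2 cells (600/well) mixed with reagent were plated; second, after 5 h at 37 C they received compounds via pintool; third, fluorescence was measured at 0 h through 40 h at 8 h intervals.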

Protein sequences, listed by entry. Tags and fused reporters are not part of them.
UniProt P03372, whole entry: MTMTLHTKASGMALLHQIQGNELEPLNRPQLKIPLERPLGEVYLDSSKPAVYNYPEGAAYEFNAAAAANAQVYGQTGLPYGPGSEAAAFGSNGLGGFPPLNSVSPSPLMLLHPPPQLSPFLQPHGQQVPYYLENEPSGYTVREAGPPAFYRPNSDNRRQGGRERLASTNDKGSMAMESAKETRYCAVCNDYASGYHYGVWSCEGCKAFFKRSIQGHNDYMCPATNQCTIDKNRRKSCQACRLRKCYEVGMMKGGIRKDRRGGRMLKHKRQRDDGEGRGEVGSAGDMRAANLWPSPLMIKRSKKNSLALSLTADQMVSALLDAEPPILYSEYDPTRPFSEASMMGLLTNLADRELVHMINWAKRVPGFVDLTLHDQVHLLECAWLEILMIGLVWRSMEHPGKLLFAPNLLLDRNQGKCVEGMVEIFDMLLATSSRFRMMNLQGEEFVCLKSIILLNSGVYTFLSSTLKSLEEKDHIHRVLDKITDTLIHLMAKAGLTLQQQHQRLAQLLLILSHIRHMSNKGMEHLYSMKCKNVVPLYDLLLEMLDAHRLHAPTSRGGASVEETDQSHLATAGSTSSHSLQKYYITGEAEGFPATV
UniProt Q92731, whole entry: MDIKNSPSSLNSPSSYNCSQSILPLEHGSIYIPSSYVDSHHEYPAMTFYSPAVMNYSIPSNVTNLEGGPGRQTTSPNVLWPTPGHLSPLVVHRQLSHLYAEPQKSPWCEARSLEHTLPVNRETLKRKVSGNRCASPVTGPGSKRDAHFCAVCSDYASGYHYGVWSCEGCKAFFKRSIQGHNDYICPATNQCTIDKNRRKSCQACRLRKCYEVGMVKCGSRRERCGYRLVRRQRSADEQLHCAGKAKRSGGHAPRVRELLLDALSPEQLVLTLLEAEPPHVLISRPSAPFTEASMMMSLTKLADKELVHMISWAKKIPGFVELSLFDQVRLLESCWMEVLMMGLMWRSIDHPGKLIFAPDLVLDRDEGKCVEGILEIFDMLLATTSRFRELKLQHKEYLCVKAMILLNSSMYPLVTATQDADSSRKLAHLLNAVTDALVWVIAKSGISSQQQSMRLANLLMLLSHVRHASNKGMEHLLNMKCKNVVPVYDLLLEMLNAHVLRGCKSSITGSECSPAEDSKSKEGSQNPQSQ

[2] = A CellTox Green Cytotoxicity Assay to monitor cytotoxicity in HepG2 cells - 32 hour (AID 1224883); note: nearly all actives have a fitted effect of over 50% in size; note: potency is the fitted concentration of half-maximal effect
How it was run: as §1

[3] = A CellTox Green Cytotoxicity Assay to monitor cytotoxicity in HEK293 cells - 8 hour (AID 1224884); note: nearly all actives have a fitted effect of over 35% in size; note: potency is the fitted concentration of half-maximal effect
How it was run: (§2)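 Dead-cell fluorescence measured kinetically: asymmetric cyanine dye, HEK293, 600 cells/well, 5 h settle, 23 nL cpd/DMSO, 37 C, reads 0–40 h every 8 h.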

[4] = qHTS RealTime-Glo MT Cell Viability Assay in HepG2 cells - 16 hour (AID 1224885); details: RealTime-Glo luminescence; at 76.8 µM (top of the series) unless noted; note: nearly all actives have a fitted effect of over 50% in size
How it was run: (§3)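 HepG2 suspension premixed with RealTime-Glo reagents is plated at 600 cells per well and left 5 h at 37 C/5% CO2. Compounds in DMSO then go in, and bioluminescence reflecting viable cell number is recorded over 40 h.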

[5] = qHTS RealTime-Glo MT Cell Viability Assay in HEK293 cells - 8 hour (AID 1224887); details: RealTime-Glo luminescence; at 76.8 µM (top of the series) unless noted; note: top concentration of the series differs between compounds; nearly all actives have a fitted effect of over 50% in size
How it was run: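 600 HEK293 cells per well, dispensed already mixed with RealTime-Glo MT reagents. Compound dosing came 5 h later. The same wells were read for luminescence at 0, 8, 16, 24, 32 and 40 h of exposure at 37 C.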

[6] = A CellTox Green Cytotoxicity Assay to monitor cytotoxicity in HEK293 cells - 16 hour (AID 1224888); note: nearly all actives have a fitted effect of over 35% in size; note: potency is the fitted concentration of half-maximal effect
How it was run: as §2

[7] = qHTS RealTime-Glo MT Cell Viability Assay in HepG2 cells - 0 hour (AID 1224889); details: RealTime-Glo luminescence; at 76.8 µM (top of the series) unless noted; note: nearly all actives have a fitted effect of over 50% in size
How it was run: as §3

[8] = A CellTox Green Cytotoxicity Assay to monitor cytotoxicity in HepG2 cells - 8 hour (AID 1224890); note: nearly all actives have a fitted effect of over 45% in size; note: potency is the fitted concentration of half-maximal effect
How it was run: as §1

[9] = qHTS assay to identify small molecule antagonists of the estrogen receptor alpha (ER-alpha) signaling pathway using the BG1 cell line in the presence of 0.1 nM 17-beta-estradiol - cell viability counter screen (AID 1259241); note: nearly all actives have a fitted effect of over 40% in size
How it was run: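 Estradiol-stimulated (0.1 nM) VM7Luc4E2 cells exposed to compounds 22 hr; viability measured by fluorescence of cleaved CellTiter-Fluor substrate after 30 min.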

[10] = qHTS assay to identify small molecule antagonists of the androgen receptor (AR) signaling pathway using the MDA cell line in the presence of 0.5 nM R1881 - cell viability counter screen (AID 1259242); details: MDA-kb2 viability, CellTiter-Fluor protease fluorescence, 16 h; at 92.4 µM (top of the series); note: nearly all actives have a fitted effect of over 45% in size
How it was run: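 qHTS format. MDA-kb2 (MMTV-luc, AR/GR responsive) + cpd + 0.5 nM R1881 final, 16 hr 37C/0% CO2 → CellTiter-Fluor 30 min → fluorescence intensity.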

[11] = biological target: Estrogen receptor (Homo sapiens) (UniProt P03372); test: qHTS assay to identify small molecule antagonists of the estrogen receptor alpha (ER-alpha) signaling pathway using the BG1 cell line in the presence of 0.1 nM 17-beta-estradiol (AID 1259244); details: VM7Luc4E2 (BG1) ERE-luciferase, antagonist mode, 0.1 nM E2, 22 h; at 92.4 µM (top of the series) unless noted; note: nearly all actives have a fitted effect of over 50% in size
[12] = qHTS assay to identify small molecule HDAC inhibitors (AID 1259364);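 note: wild-type HCT-116 cells with endogenous class I/II HDAC activity; top concentration of the series differs between compounds; nearly all actives have a fitted effect of over 45% in size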
How it was run: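 Quantitative high-throughput format: overnight-seeded HCT-116 cells got compounds for 2 hr at 37C; HDAC-Glo I/II reagent added, 30 min RT, luminescence measured.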

[13] = qHTS assay to identify small molecule HDAC inhibitors - cell viability counter screen (AID 1259365); details: HCT-116 viability, CellTiter-Glo ATP luminescence, 2 h; at 92.4 µM (top of the series) unless noted; note: nearly all actives have a fitted effect of over 50% in size
How it was run: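 After overnight seeding at 1,500 cells per well, wild-type HCT-116 cultures took up compounds in DMSO for 2hr at 37 C. Viable cell content came from luminescence with CellTiter-Glo.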

[14] = qHTS assay to identify small molecule agonists of the sonic hedgehog signaling (Shh) pathway - cell viability counter screen (AID 1259366); note: nearly all actives have a fitted effect of over 50% in size; note: potency is the fitted concentration of half-maximal effect
How it was run: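 Same-well cytotoxicity read. Gli1-Luc reporter 3T3 cells; compounds 24hr, 37C/5% CO2; CellTiter-Fluor fluorescence.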

[15] = qHTS assay to identify small molecule antagonists of the sonic hedgehog signaling (Shh) pathway - cell viability counter screen (AID 1259367); note: nearly all actives have a fitted effect of over 55% in size; note: potency is the fitted concentration of half-maximal effect
How it was run: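 Conditioned medium drove Shh signaling in 3T3 Gli1-Luc cells exposed to compounds at 37C and 5% CO2. Viability was determined from CellTiter-Fluor fluorescence, with reagent incubated 1 hr after 23 hr of treatment.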

[16] = qHTS assay to identify small molecule agonists of the sonic hedgehog signaling (Shh) pathway (AID 1259368; calls by dose curve;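 note: NIH/3T3-derived 3T3Gli1-Luc cells carrying a stable Gli1-driven firefly luciferase reporter; nearly all actives have a fitted effect of over 15% in size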); details: NIH/3T3 Gli1-Luc reporter, luciferase, 24 h, stronger effect = higher value; at 92.4 µM (top of the series) unless noted
How it was run: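 Quantitative high-throughput format using a Gli1-driven firefly luciferase reporter line derived from NIH/3T3 cells. After a 24 hr compound treatment at 37 C and 5% CO2, luminescence reported Gli1 response element activity.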

[17] = qHTS assay to identify small molecule antagonists of the sonic hedgehog signaling (Shh) pathway (AID 1259369; calls by dose curve; note: nearly all actives have a fitted effect of over 45% in size)
How it was run: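 Stable Gli1-Luc reporter NIH/3T3 clone; quantitative HTS in stimulated mode with conditioned medium. Luminescence measured after 24hr compound treatment at 37 C.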

[18] = biological target: Estrogen receptor beta (Homo sapiens) (UniProt Q92731); test: qHTS assay to identify small molecule antagonists of the estrogen receptor beta (ER-beta) signaling pathway (AID 1259378; active = well fitted inhibition curve with a large enough effect in the signal ratio in the repeat runs, not every such curve was filed as active; the % refers to the signal ratio); details: ER-beta-UAS-bla HEK293T, beta-lactamase FRET ratio, 16 h; at 92.4 µM (top of the series) unless noted
How it was run: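 ER-beta-UAS-bla HEK293T (GripTite) cells in 2% charcoal-stripped FBS medium were preincubated 6 hr at 37C, dosed with compound, then stimulated with 1 nM E2 (final) for 16 hr; beta-lactamase reporter read by B/G FRET fluorescence after 2 hr substrate loading.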
% is set by controls: 0 for no effect and ±100 for the full control effect.

SMILES | Potency [1] | Potency [2] | Potency [3] | activity change, negative = cytotoxic [4] | activity change, negative = cytotoxicity [5] | Potency [6] | activity change, negative = cytotoxicity [7] | Potency [8] | Potency [9] | viability change, negative = cytotoxic [10] | activity change, negative = inhibition [11] | Potency [12] | activity change, negative = cytotoxicity [13] | Potency [14] | Potency [15] | activity change [16] | Potency [17] | activity, negative = inhibition [18]
CP(=O)(O)OCCC[Si](O)(O)O | inactive | inactive | inactive | inactive: 3.05% | inactive: -1.25% | inactive | inactive: 2.17% | inactive | inactive | inactive: 4.48% | inactive: -0.215% | inactive | inactive: -0.542% | inactive | inactive | inactive: 1.15% | inactive | inactive: 9.53%
O=[N+]([O-])c1cccc([N+](=O)[O-])c1 | active: 45.5 µM | active: 22.8 µM | active: 45.5 µM | inactive: -0.271% | – | active: 45.5 µM | inactive: 10.2% | active: 51 µM | – | inactive: 6.73% | – | inactive | inactive: -12.9% | inactive | inactive | inactive: 0.97% | – | –
Cc1ccc([N+](=O)[O-])cc1[N+](=O)[O-] | inactive | inactive | inactive | – | inactive: 0.794% and inactive: 4.6% | inactive | inactive: 1.25% and inactive: 7.12% | inactive | inactive | inactive: 3% and inactive: 2.07% | inactive: -13.2% and inactive: -4.71% | inactive | – | active: 13.5 µM and inactive | active: 17 µM and inactive | inactive: -3.5% and inactive: -0.319% | – | –
O=[N+]([O-])[O-].[NH4+] | inactive and active: 38.9 µM | inactive and active: 43.6 µM | inactive and active: 38.9 µM | inactive: 1.32% and inactive: 0.868% | inactive: 2.36% and inactive: 0.928% | – | inactive: 6.99% and inactive: 3.88% | inactive and active: 38.9 µM | inactive | – | – | inactive | inactive: -0.889% and inactive: 4.85% | inactive | inactive | inactive: -1.63% and inactive: -0.786% | inactive | –
